By UniProt entry, the sequences of proteins in these tests, tags left out. Where a name states a change or a piece, a line headed by the entry shows the natural chain unless it says otherwise.
UniProt P28843: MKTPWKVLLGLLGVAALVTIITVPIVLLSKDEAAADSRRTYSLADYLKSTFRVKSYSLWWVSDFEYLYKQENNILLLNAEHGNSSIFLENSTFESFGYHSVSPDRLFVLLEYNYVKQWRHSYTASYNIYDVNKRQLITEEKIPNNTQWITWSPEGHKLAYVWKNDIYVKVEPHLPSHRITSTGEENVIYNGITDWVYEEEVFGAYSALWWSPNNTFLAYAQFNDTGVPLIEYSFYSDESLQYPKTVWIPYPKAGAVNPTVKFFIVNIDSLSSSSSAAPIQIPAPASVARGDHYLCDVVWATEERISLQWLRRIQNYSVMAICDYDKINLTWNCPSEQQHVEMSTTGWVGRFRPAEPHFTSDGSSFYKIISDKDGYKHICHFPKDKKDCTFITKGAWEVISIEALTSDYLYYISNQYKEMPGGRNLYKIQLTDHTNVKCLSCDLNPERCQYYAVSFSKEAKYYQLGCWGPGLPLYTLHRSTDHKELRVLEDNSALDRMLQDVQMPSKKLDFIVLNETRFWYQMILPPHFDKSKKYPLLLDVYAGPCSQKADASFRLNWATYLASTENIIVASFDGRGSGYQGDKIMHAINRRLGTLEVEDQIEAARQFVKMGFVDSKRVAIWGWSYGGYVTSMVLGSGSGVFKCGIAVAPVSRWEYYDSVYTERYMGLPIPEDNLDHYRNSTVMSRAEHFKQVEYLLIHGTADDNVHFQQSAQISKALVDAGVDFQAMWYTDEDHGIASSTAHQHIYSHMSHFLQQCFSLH

According to ChEMBL document CHEMBL1140747, “Discovery of potent and selective dipeptidyl peptidase IV inhibitors derived from beta-aminoamides bearing subsituted triazolopiperazines” (J Med Chem, 2008):

Target: Dipeptidyl peptidase 4 (Mus musculus, UniProt P28843)

IC50: 69 nM
Structure (SMILES): Cl.N[C@@H](CC(=O)N1CCn2c(nnc2C(F)(F)F)C1)Cc1cc(F)c(F)cc1F
